From PubChem BioAssay (EPA / NIEHS) come the findings set out here.

Amino acid sequences for entries named in this document (tags omitted). A change or cut given only in a name is not applied to a line headed by its entry.
UniProt Q9UNQ0: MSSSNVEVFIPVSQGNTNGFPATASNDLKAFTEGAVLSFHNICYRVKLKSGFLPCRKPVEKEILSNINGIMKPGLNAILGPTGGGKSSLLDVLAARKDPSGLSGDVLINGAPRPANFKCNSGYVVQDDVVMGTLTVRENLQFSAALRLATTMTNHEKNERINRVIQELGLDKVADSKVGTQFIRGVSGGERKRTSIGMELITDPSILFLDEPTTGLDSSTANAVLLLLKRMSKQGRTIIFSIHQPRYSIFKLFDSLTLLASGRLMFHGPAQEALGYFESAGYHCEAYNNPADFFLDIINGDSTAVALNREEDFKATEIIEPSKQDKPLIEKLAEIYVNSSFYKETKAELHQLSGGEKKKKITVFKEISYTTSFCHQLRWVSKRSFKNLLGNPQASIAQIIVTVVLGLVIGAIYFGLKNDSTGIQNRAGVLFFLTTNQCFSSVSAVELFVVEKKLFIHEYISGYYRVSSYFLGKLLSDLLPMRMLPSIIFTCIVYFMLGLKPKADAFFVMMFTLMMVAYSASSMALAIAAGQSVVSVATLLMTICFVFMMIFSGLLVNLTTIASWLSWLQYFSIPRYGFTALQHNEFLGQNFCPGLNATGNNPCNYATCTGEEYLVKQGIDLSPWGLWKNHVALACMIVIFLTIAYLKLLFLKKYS

As usually defined, the AC50 is the midpoint of the concentration-response curve, whichever way the signal moves.

Read-out in assay [1]: catalase (CAT), CAT (gene 847)
As to the kind of experiment: LTEA_HepaRG_CAT: Life Technologies and Expression Analysis (LTEA) Assay for catalase (CAT) using HepaRG (AID 2283452). The settings on record: actives raise or lower the signal; mRNA level, 48 h. In outline: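 HepaRG cells in serum-free induction medium, 0.5% DMSO vehicle, exposed 48 h in duplicate over 8 half-log concentrations from 100 uM. CAT mRNA measured by qRT-PCR, normalized to ACTB, GAPDH, POLR2A; bidirectional fit versus DMSO.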

Read-out in assay [2]: flavin-containing dimethylaniline monooxygenases 3 (FMO3), FMO3 (gene 2328)
The assay is described as follows: LTEA_HepaRG_FMO3: Life Technologies and Expression Analysis (LTEA) Assay for flavin-containing dimethylaniline monooxygenases 3 (FMO3) using HepaRG (AID 2283453). The settings on record: actives raise or lower the signal; mRNA level, 48 h. In a few lines:
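Eight-point concentration-response in serum-free HepaRG cultures (top 100 uM, 0.5% DMSO, 48 h). Read-out: FMO3 mRNA level normalized to three endogenous control genes, fitted bidirectionally versus vehicle.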

Read-out in assay [3]: Cytochrome P450 (CYP1A1), CYP1A1 (gene 1543)
The assay is described as follows: LTEA_HepaRG_CYP1A1: Life Technologies and Expression Analysis (LTEA) Assay for Cytochrome P450 (CYP1A1) using HepaRG (AID 2283454). The following applies: actives raise or lower the signal; mRNA level, 48 h. In outline:
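Differentiated HepaRG cells in serum-free induction medium were exposed in duplicate for 48 h to eight half-log concentrations up to 100 uM in 0.5% DMSO. CYP1A1 mRNA was quantified by TaqMan qRT-PCR, normalized to ACTB, GAPDH and POLR2A.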

Read-out in assay [4]: CFLAR gene, CFLAR (gene 8837)
The assay is described as follows: LTEA_HepaRG_CFLAR: Life Technologies and Expression Analysis (LTEA) Assay for CFLAR gene using HepaRG (AID 2283455). The settings on record: actives raise or lower the signal; mRNA level, 48 h. In a few lines: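 qRT-PCR read-out (Fluidigm/TaqMan) of CFLAR mRNA, normalized to three housekeeping genes, in differentiated human HepaRG cells after 48 h chemical exposure; 8-point half-log series from 100 uM in 0.5% DMSO; bidirectional curve fitting versus DMSO.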

Read-out in assay [5]: growth arrest and DNA damage 45 (GADD45A), GADD45A (gene 1647)
The assay is described as follows: LTEA_HepaRG_GADD45A: Life Technologies and Expression Analysis (LTEA) Assay for growth arrest and DNA damage 45 (GADD45A) using HepaRG (AID 2283458). The following applies: actives raise or lower the signal; mRNA level, 48 h. In outline: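 HepaRG, 48 h exposure, 8 conc. (top 100 uM, half-log steps), 0.5% DMSO vehicle, duplicates. Read-out: qRT-PCR mRNA level, housekeeping-normalized (ACTB/GAPDH/POLR2A). Curves fit bidirectionally vs DMSO baseline.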

Read-out in assay [6]: Forkhead box O3 (FOXO3), FOXO3 (gene 2309)
The assay is described as follows: LTEA_HepaRG_FOXO3: Life Technologies and Expression Analysis (LTEA) Assay for Forkhead box O3 (FOXO3) using HepaRG (AID 2283459). The following applies: actives raise or lower the signal; mRNA level, 48 h. In a few lines: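 qRT-PCR readout of FOXO3 transcript, normalized to three housekeeping genes (ACTB, GAPDH, POLR2A); gain or loss fitted against 0.5% DMSO vehicle. HepaRG cells, 48 h chemical exposure, 8-point half-log series, top 100 uM.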

Read-out in assay [7]: ABC Transporter (ABCB1), ABCB1 (gene 5243)
The assay is described as follows: LTEA_HepaRG_ABCB1: Life Technologies and Expression Analysis (LTEA) Assay for ABC Transporter (ABCB1) using HepaRG (AID 2283460). The following applies: actives raise or lower the signal; mRNA level, 48 h. In a few lines: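 HepaRG, 48 h exposure, 8-pt half-log series from 100 uM, 0.5% DMSO vehicle, duplicates. Readout: ABCB1 transcript by Fluidigm TaqMan qRT-PCR, housekeeping-normalized; bidirectional curve fit vs DMSO baseline.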

Read-out in assay [8]: ABC Transporter (ABCC3), ABCC3 (gene 8714)
As to the kind of experiment: LTEA_HepaRG_ABCC3: Life Technologies and Expression Analysis (LTEA) Assay for ABC Transporter (ABCC3) using HepaRG (AID 2283462). The settings on record: actives raise or lower the signal; mRNA level, 48 h. In outline:
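HepaRG cells in serum-free induction medium were exposed for 48 h in duplicate to 8-point half-log concentrations topping at 100 uM in 0.5% DMSO. ABCC3 mRNA was measured by qRT-PCR normalized to ACTB, GAPDH and POLR2A, with bidirectional fitting versus DMSO.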

Read-out in assay [9]: ABC Transporter (ABCC2), ABCC2 (gene 1244)
As to the kind of experiment: LTEA_HepaRG_ABCC2: Life Technologies and Expression Analysis (LTEA) Assay for ABC Transporter (ABCC2) using HepaRG (AID 2283464). The following applies: actives raise or lower the signal; mRNA level, 48 h. In a few lines:
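HepaRG cells were plated 48 h, switched to serum-free induction medium, then exposed in duplicate for 48 h to 8 concentrations (top 100 uM, half-log steps, 0.5% DMSO). ABCC2 mRNA was measured by qRT-PCR normalized to ACTB/GAPDH/POLR2A; bidirectional fitting versus DMSO.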

Read-out in assay [10]: Broad substrate specificity ATP-binding cassette transporter ABCG2 (Homo sapiens) (UniProt Q9UNQ0)
As to the kind of experiment: LTEA_HepaRG_ABCG2: Life Technologies and Expression Analysis (LTEA) Assay for ABC Transporter (ABCG2) using HepaRG (AID 2283465). The following applies: actives raise or lower the signal; mRNA level, 48 h. In outline:
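HepaRG, 48 h exposure, 8-pt half-log series from 100 uM, 0.5% DMSO vehicle, duplicates. Readout: ABCG2 transcript by qRT-PCR (Fluidigm array), housekeeping-normalized; bidirectional curve fit relative to DMSO baseline.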

Read-out in assay [11]: ATP-citrate lyase (ACLY), ACLY (gene 47)
The assay is described as follows: LTEA_HepaRG_ACLY: Life Technologies and Expression Analysis (LTEA) Assay for ATP-citrate lyase (ACLY) using HepaRG (AID 2283466). The settings on record: actives raise or lower the signal; mRNA level, 48 h. In outline: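 qRT-PCR readout of ACLY transcript after 48 h chemical treatment of HepaRG cells; expression normalized to three housekeeping genes. Eight-point half-log series, highest 100 uM, 0.5% DMSO vehicle. Gain or loss fitted against DMSO baseline.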

Read-out in assay [12]: Peroxisomal acyl-coenzyme A oxidase 1 (ACOX1) gene, ACOX1 (gene 51)
As to the kind of experiment: LTEA_HepaRG_ACOX1: Life Technologies and Expression Analysis (LTEA) Assay for Peroxisomal acyl-coenzyme A oxidase 1 (ACOX1) gene using HepaRG (AID 2283467). The following applies: actives raise or lower the signal; mRNA level, 48 h. In a few lines: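 HepaRG, 48 h chemical exposure, 8-pt half-log series from 100 uM top, 0.5% DMSO vehicle, duplicates. Readout: ACOX1 mRNA by Fluidigm qRT-PCR, housekeeping-normalized; bidirectional fit vs DMSO baseline.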

Read-out in assay [13]: Alkaline Phosphatase, Placental (ALPP) gene, ALPP (gene 250)
The assay is described as follows: LTEA_HepaRG_ALPP: Life Technologies and Expression Analysis (LTEA) Assay for Alkaline Phosphatase, Placental (ALPP) gene using HepaRG (AID 2283468). The settings on record: actives raise or lower the signal; mRNA level, 48 h. In outline:
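Differentiated human HepaRG cells were plated and cultured 48 h, then exposed in duplicate for 48 h in serum-free induction medium to eight half-log concentrations from 100 uM in 0.5% DMSO. ALPP mRNA was measured by TaqMan qRT-PCR, normalized to ACTB, GAPDH, POLR2A.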

Read-out in assay [14]: Bcl-2 (BAD) gene, BAD (gene 572)
The assay is described as follows: LTEA_HepaRG_BAD: Life Technologies and Expression Analysis (LTEA) Assay for Bcl-2 (BAD) gene using HepaRG (AID 2283469). The following applies: actives raise or lower the signal; mRNA level, 48 h. In a few lines:
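HepaRG, 48 h exposure, 8-pt half-log curve from 100 uM in 0.5% DMSO, duplicates. Readout: TaqMan qRT-PCR for BAD mRNA, housekeeping-normalised (ACTB/GAPDH/POLR2A); gain or loss fitted against DMSO baseline.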

Read-out in assay [15]: Bcl-2 (BAX) gene, BAX (gene 581)
As to the kind of experiment: LTEA_HepaRG_BAX: Life Technologies and Expression Analysis (LTEA) Assay for Bcl-2 (BAX) gene using HepaRG (AID 2283470). The settings on record: actives raise or lower the signal; mRNA level, 48 h. In outline: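 qRT-PCR read-out of BAX mRNA, normalized to three housekeeping genes, after 48 h chemical exposure of human HepaRG cells in serum-free induction medium; eight-point half-log series, top 100 uM, 0.5% DMSO vehicle; bidirectional fit versus DMSO.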

Read-out in assay [16]: Forkhead box O1 (FOXO1), FOXO1 (gene 2308)
The assay is described as follows: LTEA_HepaRG_FOXO1: Life Technologies and Expression Analysis (LTEA) Assay for Forkhead box O1 (FOXO1) using HepaRG (AID 2283456). The following applies: actives raise or lower the signal; mRNA level, 48 h. In a few lines:
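HepaRG, 48 h exposure, 8-pt half-log series from 100 uM in 0.5% DMSO, duplicates; Fluidigm qRT-PCR mRNA, housekeeping-normalised; bidirectional fit vs DMSO baseline.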

Assay [17] in a line: CEETOX_H295R_TESTO: CeeTox H295R High-throughput Steroidogenesis Assay for Testosterone (TESTO) (AID 2283457). The following applies: actives raise or lower the signal. In a few lines:
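H295R human adrenal cells in DMEM/F12 with ITS+ and Nu-Serum, exposed to chemicals for 48 h. Testosterone in medium measured by MTBE extraction, reverse-phase HPLC-MS/MS; bidirectional fit versus DMSO baseline. MTT viability checked in same wells.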

Read-out in assay [18]: growth arrest and DNA damage 45 (GADD45B), GADD45B (gene 4616)
The assay is described as follows: LTEA_HepaRG_GADD45B: Life Technologies and Expression Analysis (LTEA) Assay for growth arrest and DNA damage 45 (GADD45B) using HepaRG (AID 2283461). The following applies: actives raise or lower the signal; mRNA level, 48 h. In a few lines: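 Differentiated HepaRG cells, plated 48 h then switched to serum-free induction medium, were exposed 48 h in duplicate to eight half-log concentrations from 100 uM in 0.5% DMSO; mRNA quantified by qRT-PCR, normalized to ACTB/GAPDH/POLR2A, bidirectional fit versus DMSO.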

Read-out in assay [19]: ABC Transporter (ABCB11), ABCB11 (gene 8647)
The assay is described as follows: LTEA_HepaRG_ABCB11: Life Technologies and Expression Analysis (LTEA) Assay for ABC Transporter (ABCB11) using HepaRG (AID 2283463). The following applies: actives raise or lower the signal; mRNA level, 48 h. In outline: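 HepaRG, 48 h exposure, 8-pt half-log CRC top 100 uM, 0.5% DMSO vehicle, duplicates. Readout: TaqMan qRT-PCR of ABCB11 mRNA, housekeeping-normalized (ACTB/GAPDH/POLR2A). Bidirectional fit vs DMSO baseline.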

Read-out in assay [20]: adenosine kinase (ADK) gene, ADK (gene 132)
As to the kind of experiment: LTEA_HepaRG_ADK: Life Technologies and Expression Analysis (LTEA) Assay for adenosine kinase (ADK) gene using HepaRG (AID 2283471). The following applies: actives raise or lower the signal; mRNA level, 48 h. In outline: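 ADK expression quantified by qRT-PCR, normalised to three housekeeping genes, after 48 h exposure of HepaRG cells to eight concentrations (top 100 uM, half-log steps, duplicate, 0.5% DMSO). Up- or down-regulation fitted relative to vehicle.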

Structures are written as SMILES. This is a selection; strong and weak results do not stand in their true shares. Calls of active or inactive are those of the source. Rule for the calls: active = hit-call score of the fitted dose curve at least 0.9, where 1 is the maximum; inactive = score below 0.9.

In the case of `Cc1cc([N+](=O)[O-])cc([N+](=O)[O-])c1O`, the AC50 in assay [1] was active: 5.81 µM; in [2], active: 8.8 µM; in assay [3] it was active: 75.1 µM; in [4], active: 4.49 µM; in assay [5] it was active: 35.2 µM; in assay [7], active: 12.3 µM. Also, the AC50 was active: 12.7 µM in assay [8]; active: 12.5 µM in assay [9]; active: 90.9 µM in assay [10]; active: 12.3 µM in [11]; active: 12.7 µM in assay [12]; active: 50 µM in assay [13]. Also, the AC50 in assay [15] is active: 74.8 µM. In addition, the compound was called inactive in [6] and in assay [14].

For `O=C1C2CC=CCC2C(=O)N1SC(Cl)(Cl)C(Cl)Cl` (centres undefined), the compound was classed as inactive in [1], in assay [2], in [16], in assay [17], in assay [6] and in [7]. Further, the compound was classed as inactive in assay [8], in [9], in [10], in [11], in assay [12] and in [14]. For the same compound, the call in assay [15] and in [20] was inactive. In addition, the AC50 in [3] was active: 65.1 µM; in assay [4], active: 9.92 µM; in assay [5], active: 0.511 µM; in assay [18], active: 50 µM; in [19], active: 75.5 µM.
